Key:
KOR [1] = target: T1, KOR (Homo sapiens, UniProt P41145); assay: KOR-mediated G protein activation, [35S]GTPγS binding, CHO-hKOR cell membranes; format: biochemical; conditions: % of maximum stimulation with respect to reference KOR agonist U69,593
[2] = Acetic acid-induced writhing test in mice after s.c. administration; format: in vivo; conditions: 30 min after s.c. administration
KOR [3] = target: T1, KOR; assay: KOR-mediated β-arrestin2 recruitment, DiscoveRx PathHunter assay, U2OS-hMOR-β-arrestin2 cells; format: cell-based

By UniProt entry, the sequences of proteins in these tests, tags left out. Where a name states a change or a piece, a line headed by the entry shows the natural chain unless it says otherwise.
UniProt P41145: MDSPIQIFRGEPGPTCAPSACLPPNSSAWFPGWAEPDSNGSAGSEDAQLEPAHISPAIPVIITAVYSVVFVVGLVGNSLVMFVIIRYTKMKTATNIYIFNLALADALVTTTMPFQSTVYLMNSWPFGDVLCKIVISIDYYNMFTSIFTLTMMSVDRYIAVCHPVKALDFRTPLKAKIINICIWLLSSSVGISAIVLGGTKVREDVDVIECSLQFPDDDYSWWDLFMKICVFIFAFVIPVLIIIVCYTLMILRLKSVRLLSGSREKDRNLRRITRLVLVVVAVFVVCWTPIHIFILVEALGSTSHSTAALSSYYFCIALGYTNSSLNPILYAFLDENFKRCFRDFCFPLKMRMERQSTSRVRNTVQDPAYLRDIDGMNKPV

| SMILES | [35S]GTPγS binding KOR Emax (KOR [1]) [%] | ED50 writhing test [2] | Bias factor (KOR [3]; RAi(β-arrestin2)/RAi(G protein), reference ligand U69,593) | β-arrestin2 recruitment assay Emax (KOR [3]; relative to maximum stimulation of reference KOR agonist U69,593) [%] |
| --- | --- | --- | --- | --- |
| CN(C(=O)Cc1ccc(Cl)c(Cl)c1)[C@@H]1CCCC[C@H]1N1CCCC1 | 93.0 | 1.54 mg/kg, s.c. | – | – |
| CN(C(=O)Cc1ccccc1)[C@H]1CC[C@@]2(CCCO2)C[C@@H]1N1CCCC1 | 100 | – | 1 | 100 |

From US10377698B2, “Diphenethylamine derivatives which are inter alia useful as analgesics and method for their production” (UNIVERSITY OF INNSBRUCK, priority 2015, dated 2019)
